TDP43 rescue: qHTS of TDP-43 Inhibitors; Potency, µM (titrated, usually from 46.1 µM), inactives show at the highest dose growth rescue (activation), actives largely listed as activators; 410,000 compounds, 1.8% hits; TDP-43 expressing yeast growth rescue, BacTiter-Glo, 24 h; AID 652104, 2013; note: % of control where 0% means no effect; nearly all actives have a fitted effect of over 50% in size
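Readout is BacTiter-Glo luminescence of cell growth, so inhibitors register as activators. TDP-43-expressing yeast at OD600=0.02 in galactose medium, after raffinose pregrowth to mid-log, were incubated with compound for 24 hr at 30 deg C.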
Rango-impB inh: qHTS Assay for Inhibitors of Rango (Ran-regulated importin-beta cargo) - Importin beta complex formation; Rango CFP/YFP FRET sensor + importin beta, 45 min; Importin subunit beta-1 (Homo sapiens), Q14974; Potency, µM (titrated, usually from 92.2 µM), without a hit: at the top dose inhibition of complex formation; 340,000 compounds, 0.031% hits; calls by dose curve;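 note: 0% = DMSO wells and 100% = buffer wells lacking importin beta; nearly all actives have a fitted effect of over 15% in size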
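FRET biosensor (snurportin 1 IBB flanked by EYFP and cerulean), 50 nM, with compound 5 min, then 0.125 microM importin beta in PBS, 1 mM DTT, 0.02% Tween-20, 0.1% BSA. CFP/YFP ratio read after 45 min at room temperature; pre-read flags interference.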
aSyn yeast inh: qHTS of alpha-syn Inhibitors | Potency, µM (top dose mostly 46.1 µM), without a hit: at the top dose growth rescue (activation), most hits filed as activators | 370,000 compounds, 0.14% hits | Yeast expressing alpha-synuclein, growth rescue, BacTiter-Glo, 24 h; note: % of control where 0% means no effect; nearly all actives have a fitted effect of over 65% in size
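Readout is rescue of growth in alpha-synuclein-expressing yeast, so inhibitors of toxicity appear as activators. Growth after 24 hr at 30 deg C in galactose medium is quantified by luminescence.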
S-ASM inh: Inhibitors of Secretory Acid Sphingomyelinase (S-ASM): qHTS; placental ASM, HMU-PC fluorogenic substrate, 60 min; AID 504937, 2011; Potency, µM (titrated, usually from 57.5 µM), inactives show at the highest dose activity change, negative = inhibition, most hits filed as inhibitors; 340,000 compounds, 0.006% hits; Sphingomyelin phosphodiesterase (Homo sapiens), P17405
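HMU-PC0 cleavage (9 uM final) by human placental ASM, 60 min at 37 °C following 10 min compound exposure at RT; stopped at pH 10, fluorescence Ex 386/Em 447 nm.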
Rango release inh: qHTS Assay for Inhibitors of RanGTP induced Rango (Ran-regulated importin-beta cargo) - Importin beta complex dissociation; Biochemical FRET Rango-importin beta, RanGTP-induced dissociation; Potency, µM (titrated, usually from 46.1 µM), inactives show top-dose activity change, negative = inhibition; 340,000 compounds, 0.071% hits; calls by dose curve; note: % of control where 0% means no effect; nearly all actives have a fitted effect of over 45% in size
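Rango (0.1 uM)–importin beta (0.25 uM) complex; RanGTP-RCC1 trigger; 45 min RT; CFP/YFP FRET read.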
Abeta rescue: qHTS for compounds that reverse cellular toxicity of Amyloid beta (A-beta) peptide in yeast: Primary Screen. yeast expressing A-beta42, growth rescue, OD600, 48 h; response scale: 0% DMSO, 100% iron-clioquinol control. Potency, µM (doses to about 46.1 µM), usual class: activators. 410,000 compounds, 0.063% hits; note: nearly all actives have a fitted effect of over 55% in size
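Yeast A-beta toxicity model in growth medium with pinned compounds, 48 h at 30 C; growth read as absorbance at 600 nm. Normalized to FeCl3/clioquinol equimolar mix (positive) and DMSO (negative).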
* marks the source's active call; other numbers are inactive results; i = inactive; ? = inconclusive; / = no result given; [ ] = dose if it differs, or a comment. An excerpt weighted towards active compounds, which were near 2% of everything screened. Unless noted, calls come from the whole dose curve; as a rule, active = well fitted curve in the direction sought with a large enough effect; inconclusive = small, poorly fitted or top-dose-only effect, or another doubt; inactive = no such curve, though single readings can be large; an effect the other way counts as inactive or inconclusive. Potency is the fitted concentration of half-maximal effect.

molecule | TDP43 rescue | Rango-impB inh | aSyn yeast inh | S-ASM inh | Rango release inh | Abeta rescue
Cc1ccc2oc(=O)c3cnn(CC(=O)N4CCN(c5ccc(F)cc5)CC4)c3c2c1 | 30% | / | / | / | / | i
N#Cc1c(-c2ccccc2)cc(-c2ccc3c(c2)OCO3)[nH]c1=O | 0% | ? | 2% | i | ? | i
N#Cc1c(N)nc2c(c1-c1ccc3c(c1)OCO3)CCc1ccccc1-2 | 32µM* | -5% | 8% | i | 5% | i
N#Cc1c(-c2ccc3c(c2)OCO3)csc1N | 16µM* | 0% | 1% | 2% | 1% | i
N#Cc1c(N)c(C#N)c(-c2ccc3c(c2)OCO3)c2c1CCCC2 | 5% | -2% | 0% | 302% | 2% | i
CCCSc1nc2sc3c(c2c(=O)n1-c1ccc(C)c(Cl)c1)CCN(C(C)=O)C3 | 1% | / | / | / | / | i
CCCc1nc(SCC(=O)c2ccccc2)c2c(=O)n(C)c(=O)n(C)c2n1 | 14µM* | 4% | ? | ? | -2% | i
CCc1nc(SCC(=O)c2ccccc2)c2c(=O)n(C)c(=O)n(C)c2n1 | -7% | -3% | 19% | -10% | 16% | i
Cc1ccc(C(=O)N2CCN(c3ccc(F)cc3)CC2)cc1NC(=O)c1nsc2ccccc12 | 16% | / | / | / | / | i
COc1cc(OC)c(C2Nc3ccccc3-c3nnc(SCc4ccccc4)nc3O2)cc1OC (stereo not given) | 30% | / | / | / | / | i
COc1ccc(C(=O)CC2(C(=O)O)CCCCC2)cc1 | 16µM* | 0% | 14% | 2% | -1% | i
COc1ccc(C(=O)CN2C(=O)NC3(CCCCCC3)C2=O)cc1 | -9% | 6% | 8% | / | ? | i
COc1cc(C(=O)NCC(c2ccco2)S(=O)(=O)c2cccs2)cc(OC)c1OC (stereo not given) | 20% | / | / | / | / | i
Cc1ccc(C2CC(c3ccccc3)=NN2c2ccc(S(N)(=O)=O)cc2)cc1 (stereo not given) | ? | / | 14% | / | / | i
COc1ccc(C2CC(c3ccccc3C(F)(F)F)=NN2c2ccc(S(N)(=O)=O)cc2)cc1 (stereo not given) | 15% | ? | 5% | i | ? | i
CCc1ccc(C2=NN(c3ccc(S(N)(=O)=O)cc3)C(c3ccc(F)cc3)C2)cc1 (stereo not given) | 14µM* | ? | 14% | i | ? | ?
COc1ccc(C2CC(c3ccc(C(F)(F)F)cc3)=NN2c2ccc(S(N)(=O)=O)cc2)cc1 (stereo not given) | 13µM* | ? | ? | i | ? | i
O=C1NC(=S)N/C1=C\c1ccc(N2CCOCC2)cc1 | -7% | ? | -7% | 4% | 8.2µM* | i
c1ccc2c(NCCc3c[nH]c4ccccc34)c3ccccc3nc2c1 | 5% | ? | 4% | 67% | 15µM*[inhibitor] | i
Oc1ccc(NCc2ccccc2OCc2ccc(Cl)cc2)cc1 | ? | / | / | / | / | i
CCOc1cc(CNc2ccc(O)cc2)ccc1OCc1ccc(Cl)cc1 | 35µM* | / | / | / | / | i
Cn1c(-c2ccccc2)cc2c3no[n+]([O-])c3ccc21 | 3.5µM* | -1% | 11% | -6% | 2% | i
Cn1c(-c2ccccc2)cc2ccccc21 | 0% | 0% | 8% | -5% | -11% | i
CCC(C)NC(=O)CSc1nc2cc3c(cc2c(=O)n1CCCCCC(=O)NCc1ccc(OC)cc1)OCO3 (stereo not given) | 4% | / | / | / | / | i
O=c1c2c3c(sc2nc(NCCO)n1CCc1ccccc1)CCCCC3 | 14µM* | 3% | -12% | -13% | 0% | i
OCCNc1nc(SCc2ccccc2)nc2sc3c(c12)CCC3 | 10µM* | 0% | -11% | -25% | 0% | i
Oc1ccc(Nc2ccc3ccccc3c2)cc1 | 22µM* | -3% | -22% | 14% | -17% | i
C#CCOCCOCCOCCNc1nc(N2CCN(C(=O)CCCCCCCCCCNC(=O)[C@H](CCCCN)n3cc(CCCC(=O)O)nn3)CC2)nc(N2CCN(C(=O)CCCCCCCCCCNC(=O)[C@H](CCCN=C(N)N)n3cc(C[C@@H](C)CC)nn3)CC2)n1 | -69% | -1% | -61% | -19% | 0% | i
C#CCOCCOCCOCCNc1nc(N2CCOCC2)nc(N2CCN(C(=O)[C@H](CCCN=C(N)N)n3cc(C(N)[C@@H](C)CC)nn3)CC2)n1 (stereo not given in full) | 18% | 7% | 1% | 5% | -9% | i
C#CCOCCOCCOCCNc1nc(N2CCN(C(=O)[C@H](CCCCN)n3cc([C@@H](N)C(C)CC)nn3)CC2)nc(N2CCN(C(=O)[C@H](CCCCN)n3cc([C@@H](N)CC(C)C)nn3)CC2)n1 (stereo not given in full) | -4% | 52µM* | -1% | 0% | 2% | i

Keys: A = TDP43 rescue; B = Rango-impB inh; C = aSyn yeast inh; D = S-ASM inh; E = Rango release inh; F = Abeta rescue
C#CCOCCOCCOCCNc1nc(N2CCN(C(=O)CCCCCCCCCCNC(=O)[C@H](CCCCN)n3cc(CCO)nn3)CC2)nc(N2CCN(C(=O)CCCCCCCCCCNC(=O)[C@H](CCCN=C(N)N)n3cc(C[C@@H](C)CC)nn3)CC2)n1
  A: -78%	B: 65µM*	C: -55%	D: -27%	E: ?	F: i
C#CCOCCOCCOCCNc1nc(N2CCN(C(=O)[C@H](CCCN=C(N)N)n3cc(C(N)[C@H](C)CC)nn3)CC2)nc(N2CCN(C(=O)[C@H](CCCN=C(N)N)n3cc(C(N)[C@@H](C)CC)nn3)CC2)n1 (stereo not given in full)
  A: 11%	B: 65µM*	C: 0%	D: 7%	E: ?	F: i
CCOc1ccc(NC(=O)CSc2nc3ccsc3c(=O)n2CCC(C)C)cc1
  A: 12%	B: /	C: /	D: /	E: /	F: i
COc1ccc(NC(=O)Nc2nnc(N(C)C3CCCCC3)s2)c(OC)c1
  A: 0%	B: /	C: /	D: /	E: /	F: i
COc1ccc(OCc2nc3ccccc3n2Cc2ccccc2Cl)cc1
  A: 25%	B: /	C: /	D: /	E: /	F: i
COC(=O)c1c(-c2ccc(Cl)cc2)noc1N1CCN(c2cccc(C)c2C)CC1
  A: 25%[9.22 µM]	B: /	C: /	D: /	E: /	F: i
CCn1nc(-c2ccc(C)cc2)nc2c(=O)n(C)c(=O)nc1-2
  A: /	B: /	C: -83%	D: /	E: /	F: /
Fc1ccccc1SCc1nnc(-c2ccccc2Br)o1
  A: 22µM*	B: -2%	C: 13%	D: -4%	E: -3%	F: i

Pulled by structure from above (two):
Keys: A = TDP43 rescue; B = Rango-impB inh; C = aSyn yeast inh; D = S-ASM inh; E = Rango release inh; F = Abeta rescue
C#CCOCCOCCOCCNc1nc(N2CCN(C(=O)[C@H](CCCN=C(N)N)n3cc(C(N)[C@H](C)CC)nn3)CC2)nc(N2CCN(C(=O)[C@H](CCCN=C(N)N)n3cc(C(N)[C@@H](C)CC)nn3)CC2)n1 (stereo not given in full)
  A: 11%	B: 65µM*	C: 0%	D: 7%	E: ?	F: i
CCC(C)NC(=O)CSc1nc2cc3c(cc2c(=O)n1CCCCCC(=O)NCc1ccc(OC)cc1)OCO3 (stereo not given)
  A: 4%	B: /	C: /	D: /	E: /	F: i

Individual results from the entries so far.
Reading for `COC(=O)c1c(-c2ccc(Cl)cc2)noc1N1CCN(c2cccc(C)c2C)CC1` in TDP43 rescue: 25%[9.22 µM]
Reading for `C#CCOCCOCCOCCNc1nc(N2CCN(C(=O)CCCCCCCCCCNC(=O)[C@H](CCCCN)n3cc(CCO)nn3)CC2)nc(N2CCN(C(=O)CCCCCCCCCCNC(=O)[C@H](CCCN=C(N)N)n3cc(C[C@@H](C)CC)nn3)CC2)n1` in aSyn yeast inh: -55%
Reading for `Fc1ccccc1SCc1nnc(-c2ccccc2Br)o1` in aSyn yeast inh: 13%

High-throughput results (PubChem)
